For one assay, the target named is CCK1R TM2 (N2.61T) (Homo sapiens, UniProt P32238, N98T). The assay can be described thus: Intracellular calcium response, chimeric receptor CHO cells. In kind it is cell-based.
The target in assay [1] is T1, CCK1R TM6 (I6.51V, F6.52Y) (Homo sapiens, UniProt P32238, F330Y/I329V). The assay is described as above. In kind it is cell-based.
Assay [2] addresses T1, CCK1R TM6 (I6.51V, F6.52Y). The assay can be described thus: Competition binding with 125I-CCK.

Amino acid sequences for entries named in this document (tags omitted).
UniProt P32238, whole entry N98T: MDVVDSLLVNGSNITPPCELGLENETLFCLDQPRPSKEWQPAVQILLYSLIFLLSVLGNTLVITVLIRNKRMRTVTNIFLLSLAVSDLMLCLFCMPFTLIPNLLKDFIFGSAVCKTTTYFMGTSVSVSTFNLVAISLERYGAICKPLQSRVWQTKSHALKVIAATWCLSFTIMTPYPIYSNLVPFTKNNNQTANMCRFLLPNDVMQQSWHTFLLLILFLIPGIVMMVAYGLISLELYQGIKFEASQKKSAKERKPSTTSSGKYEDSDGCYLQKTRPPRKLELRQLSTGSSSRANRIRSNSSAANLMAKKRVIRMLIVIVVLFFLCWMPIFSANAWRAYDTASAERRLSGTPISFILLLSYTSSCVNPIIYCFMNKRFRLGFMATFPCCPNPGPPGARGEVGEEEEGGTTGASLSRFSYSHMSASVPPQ
UniProt P32238, whole entry I329V/F330Y: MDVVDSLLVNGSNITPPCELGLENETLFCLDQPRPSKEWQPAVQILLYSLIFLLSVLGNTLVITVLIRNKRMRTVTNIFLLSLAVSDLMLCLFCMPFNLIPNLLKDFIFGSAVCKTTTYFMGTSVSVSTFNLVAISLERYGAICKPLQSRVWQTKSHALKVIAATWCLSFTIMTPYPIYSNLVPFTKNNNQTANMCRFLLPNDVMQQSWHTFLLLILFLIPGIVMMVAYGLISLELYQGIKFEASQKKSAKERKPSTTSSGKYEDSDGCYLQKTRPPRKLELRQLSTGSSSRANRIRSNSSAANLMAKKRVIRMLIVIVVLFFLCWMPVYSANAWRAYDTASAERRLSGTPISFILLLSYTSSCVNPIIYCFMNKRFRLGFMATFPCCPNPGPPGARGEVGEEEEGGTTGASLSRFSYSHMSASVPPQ

From PMC4790425 (Journal of medicinal chemistry, 2015) come the findings set out here.

Regarding `CC(C)N(Cc1ccccc1)C(=O)CN1C(=O)[C@@H](Cc2c[nH]c3ccccc23)c2nnc(-c3ccccc3)n2-c2ccccc21` [CE-326597, N-benzyl-2-[(4S)-4-(1H-indol-3-ylmethyl)-5-oxo-1-phenyl-4,5-dihydro-6H-[1,2,4]triazolo[4,3-a][1,5]benzodiazepin-6-yl]-N-isopropylacetamide], the EC50 was 0.000525 µM on CCK1R TM2 (N2.61T) and 0.0417 µM in assay [1].

Regarding `Cc1cc(C)cc(C[C@H]2CCCCN2C(=O)CN2C(=O)[C@@H](Cc3n[nH]c4ccccc34)c3nnc(-c4ccccc4)n3-c3ccccc32)c1` [PF-04756956, (4S)-6-{2-[(2R)-2-(3,5-dimethylbenzyl)piperidin-1-yl]-2-oxoethyl}-4-(1H-indazol-3-ylmethyl)-1-phenyl-4H-[1,2,4]triazolo[4,3-a][1,5]benzodiazepin-5(6H)-one], the EC50 at CCK1R TM2 (N2.61T) was 0.000288 µM; in assay [1], 0.0692 µM. The IC50 in assay [2] was 0.0708 µM.
